From PubChem BioAssay AID504634 (The Scripps Research Institute Molecular Screening Center, 2011)
Only a part is listed here, and it is no random draw. Activity calls are given as the source filed them. Rule as the data show it: active = inhibition mostly above about 23% (no sharp cut-off); inactive = mostly below about 18%.

Sequences of proteins named here, by UniProt entry; tags and fusion partners are left off.
UniProt P47898, whole entry, looked up: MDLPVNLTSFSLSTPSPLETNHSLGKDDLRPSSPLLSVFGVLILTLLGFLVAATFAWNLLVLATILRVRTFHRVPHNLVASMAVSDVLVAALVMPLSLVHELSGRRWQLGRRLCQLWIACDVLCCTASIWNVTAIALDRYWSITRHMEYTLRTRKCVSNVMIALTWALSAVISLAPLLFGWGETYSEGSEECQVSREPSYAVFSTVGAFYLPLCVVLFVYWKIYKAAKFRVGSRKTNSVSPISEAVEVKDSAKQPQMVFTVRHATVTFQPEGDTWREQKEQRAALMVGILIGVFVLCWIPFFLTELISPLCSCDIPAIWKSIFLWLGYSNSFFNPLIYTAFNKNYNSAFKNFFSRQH

biological target: 5-hydroxytryptamine receptor 5A (Homo sapiens) (UniProt P47898); experiment: inverse agonism at human 5-HT5A receptor – cell-based, luminescence, full-deck HTS, counter-screen for OPRM1-OPRD1 heterodimer inverse agonist project, primary screen (AID 504634); conditions: HTR5A cell line, at 9.3 µM, active compounds read high;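 also: 0% = cells with DMSO and 100% = no-cell wells with DMSO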

| SMILES | inhibition |
| --- | --- |
| CCC(C(=O)NC1CCCCC1)n1c(SCc2ccc(F)cc2)nc2ccncc21 (configuration not stated) | inactive: -0.5% |
| CN(C)C(=O)Cn1c(SCC(=O)Nc2ccc3c(c2)OCO3)nc2ccccc21 | inactive: 4.75% |
| O=C1Cn2c(nc3ccccc32)N1c1ccccc1F | inactive: 12.8% |
| N=c1n(CCCOc2ccc(F)cc2)c2ccccc2n1CC(N)=O | inactive: 4.78% |
| COc1ccc(C)cc1S(=O)(=O)N1c2ccc(C)cc2C2CN(C)CCC21 (configuration not stated) | inactive: -7.05% |
| Cc1n[nH]c(C)c1CCC(=O)N/N=C/C=C/c1ccccc1 | inactive: 9.54% |
| CCC(=O)Nc1ccc2c(c1)nc1n2CCN(CCOC)C1 | inactive: 0.18% |
| O=C(c1cccc(Cl)c1)N1CCn2c1nc1ccccc12 | inactive: 5.36% |
| C=CCOC(=O)C1=C(C)N=C2SCCC(=O)N2C1/C=C/c1ccccc1OC (configuration not stated) | inactive: 11.3% |
| CCCCNc1nc2ccccc2n1CC(=O)N1CCc2ccccc2C1 | inactive: 6.07% |
| S=C=Nc1cccc(C2(N3CCCCC3)CCCCC2)c1 | inactive: -0.18% |
| CC1CCCC(C)N1C(=O)Cn1c(SCC(=O)NCc2ccc3c(c2)OCO3)nc2ccccc21 (configuration not stated) | inactive: -22.9% |
| O=C(Cn1c(-c2cscn2)nc2ccccc21)Nc1ccc(Cl)cc1 | inactive: -13.2% |
| Cn1c(=O)c2c(ncn2CC(=O)N2CCN(S(=O)(=O)c3ccc(F)cc3)CC2)n(C)c1=O | inactive: 10.4% |
| CCCn1c(=O)[nH]c(=O)c2c1nc(-c1ccccc1)n2CCN1CCOCC1 | inactive: -9.17% |
| CCCCC(=O)N/N=C(C)/C=C/c1ccccc1F | inactive: 5.37% |
| CCN(CC)CCn1c(/N=C/c2cc(Br)ccc2O)nc2ccccc21 | inactive: 19.2% |
| CCOc1ccc(C(O)Cn2c(=N)n(CCN3CCCCC3)c3ccccc32)cc1 (configuration not stated) | inactive: 13.6% |
| Cn1c(=O)c2ncn(CC(=O)NCCC3=CCCCC3)c2n(C)c1=O | inactive: -16.6% |
| Nc1ncnc2c1ncn2CCN1CCCCC1 | inactive: 5.9% |
| O=C(Cn1c(CO)nc2ccccc21)NCCc1ccc(F)cc1 | inactive: 9.92% |

| SMILES | inhibition |
| --- | --- |
| Cc1ccc(-c2csc(N3CCN(c4cc5c(cc4Cl)nc(-c4ccncc4)n5CCN4CCCCC4)CC3)n2)cc1 | inactive: 18.6% |
| CC(C)[C@H](NC(=O)N1CCn2c1nc1ccccc12)C(=O)NCC1CCCO1 (some centres not stated) | inactive: -1.46% |
| O=C(NC(Sc1ccncn1)C(Cl)(Cl)Cl)c1ccccc1 (configuration not stated) | inactive: -16% |
| Cn1c(=O)c2c(ncn2CC(=O)Nc2cc(S(=O)(=O)N3CCCCC3)ccc2O)n(C)c1=O | inactive: 12.2% |
| CCC(=O)N1c2ccc(S(=O)(=O)CCC(=O)N3CCn4c3nc3ccccc34)cc2CC1C (configuration not stated) | inactive: -2.49% |
| Oc1ccccc1CNc1ccccn1 | inactive: -44.5% |
| COCCN1CCn2c(nc3cc([N+](=O)[O-])ccc32)C1 | inactive: 15.8% |
| CCN(C(=O)Cn1cnc2c1c(=O)n(C)c(=O)n2C)C1CCS(=O)(=O)C1 (configuration not stated) | inactive: 9.22% |
| CCN(C(=O)Cn1cnc2c1c(=O)n(C)c(=O)n2C)C1CCCCC1 | inactive: -4.86% |
| CN(C)CCn1c(COc2ccccc2)nc2ccccc21 | inactive: 14.8% |
| Cc1ccccc1C(=O)Nc1cccc(NC(=O)Cn2cnc3c(=O)n(C)c(=O)n(C)c32)c1 | inactive: -5.55% |
| CC(C)CC(=O)NC(Sc1ccc(Cl)cc1)C(Cl)(Cl)Cl (configuration not stated) | inactive: -5.82% |
| N=c1n(CCOc2ccccc2)c2ccccc2n1CCN1CCOCC1 | inactive: 9.25% |
| CSCC[C@H](NC(=O)N1CCn2c1nc1ccccc12)C(=O)NCc1ccc(C)cc1 | inactive: -24.8% |
| O=C(Nc1nc2ccccc2n1CCN1CCOCC1)c1ccc(Cl)cc1 | inactive: -4.87% |
| Nc1cc(N)c2nonc2c1[N+](=O)[O-] | inactive: -23.9% |
| O=C(Cn1cnc2c(NCc3ccccc3)ncnc21)NCCN1CCOCC1 | inactive: -7.56% |
| CCCCCCNCCn1cnc2c(N)ncnc21 | inactive: 17% |
| O=C(Cn1cnc2c(OCc3ccccc3)ncnc21)NCCN1CCOCC1 | inactive: -11.7% |
| CCc1cccc(CC)c1NC(=O)Cn1c(-c2ccccc2Cl)nc2ccccc21 | inactive: 6.61% |
| COCCCNC(=O)CC1C(=O)N(Cc2ccccc2)C(C)c2nc3ccccc3n21 (configuration not stated) | inactive: 14.3% |
